Results on one compound are retold here after publication PMC8367020 (Journal of the American Chemical Society, 2021).

Protein sequences, listed by entry. Tags and fused reporters are not part of them. Residues count along the entry.
UniProt P80147, 29-500: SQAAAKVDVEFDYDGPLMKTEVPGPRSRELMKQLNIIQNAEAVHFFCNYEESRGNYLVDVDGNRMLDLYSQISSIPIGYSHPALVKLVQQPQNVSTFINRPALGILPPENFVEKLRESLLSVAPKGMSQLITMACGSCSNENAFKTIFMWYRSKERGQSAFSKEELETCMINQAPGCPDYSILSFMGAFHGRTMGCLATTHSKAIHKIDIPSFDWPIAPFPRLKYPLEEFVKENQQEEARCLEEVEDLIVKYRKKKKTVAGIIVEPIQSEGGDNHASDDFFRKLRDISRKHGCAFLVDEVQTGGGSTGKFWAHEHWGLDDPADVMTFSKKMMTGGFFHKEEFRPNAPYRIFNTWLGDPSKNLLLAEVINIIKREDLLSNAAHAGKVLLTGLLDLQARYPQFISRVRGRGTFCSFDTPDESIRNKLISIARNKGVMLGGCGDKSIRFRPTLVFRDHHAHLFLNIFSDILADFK

The target of the assay is GABA-AT (Sus scrofa, UniProt P80147). Briefly: Reversible inhibition of GABA-AT. Format: biochemical. The following applies: Ki = IC50/(1+[S]/Km).

pKi: −log10 of the molar value.

The term pKi denotes the negative decadic logarithm of the Ki, by convention in mol/L. Higher therefore signals a small Ki. In the case of `N[C@H]1C[C@@H](C(=O)O)CC1(F)F` [Compound 4, (1R,4S)-4-amino-3,3-difluorocyclopentanecarboxylic acid], the pKi is 4.00.
